# Antibody variant affinities, Ab-95 light chain, assay 2

All variants were tested on one target, the spike HR2 peptide PDVDLGDISGINAS (SARS-CoV-2).

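The starting antibody came from a phage panning campaign against this peptide. AAYL52 was designed without a model: most single CDR substitutions and a random sample of double and triple ones. Affinity was read by AlphaSeq, a pooled yeast mating assay with surface-displayed partners. After mating in shaken culture at 30 °C for 16 h, diploids were selected and their barcode pairs sequenced. Scores were corrected for input abundance and mapped to Kd with protein pairs of known affinity run in the same pool. The assay was run in three technical replicates.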

Ab-95 is the parent antibody, in scFv form: VH, then a (GGGGS)3 linker, then VL. The heavy chain is unchanged in all variants.
VH: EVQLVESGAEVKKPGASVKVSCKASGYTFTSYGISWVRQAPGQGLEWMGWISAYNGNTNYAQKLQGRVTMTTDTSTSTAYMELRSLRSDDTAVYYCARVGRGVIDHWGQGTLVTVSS
VL: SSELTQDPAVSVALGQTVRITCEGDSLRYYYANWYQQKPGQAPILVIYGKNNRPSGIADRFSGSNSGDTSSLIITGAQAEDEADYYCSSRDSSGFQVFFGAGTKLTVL

The parent's light chain CDRs are EGDSLRYYYAN, GKNNRPS, SSRDSSGFQVF; each variant's own CDRs replace them letter for letter.
Each Kd is an estimate from the mating assay, the geometric mean of the replicates in which the pair was seen; lower is stronger.
"not detected" marks a missing value. The strain was present, yet no cells mated with the target were sequenced in any replicate, which points to weak or no binding.
Nonspecific signal, from three strains lacking the peptide, appeared in 28% of pairings of library AAYL52, centred on 8.2 µM (5% of these signals below 800 nM); values are not corrected for it.
In this assay the parent's reference entry averaged 200 nM; its copy inside this library read 180 nM.

{"CDR-L1": "EGDSLRYYYAN", "CDR-L2": "GKNNRPS", "CDR-L3": "SSRDSDGFCVF", "Kd (apparent)": "not detected", "seen in": "0 of 3"}
{"CDR-L1": "EGDSLRYNYAN", "CDR-L2": "GKNNQPS", "CDR-L3": "SSRDSSGFSVF", "Kd (apparent)": "5.3 nM", "seen in": "3 of 3"}
{"CDR-L1": "EQDSLRVYYAN", "CDR-L2": "GKNNIPS", "CDR-L3": "SSRDSSGFQVF", "Kd (apparent)": "10 µM", "seen in": "2 of 3"}
{"CDR-L1": "EGDSLRYYYAN", "CDR-L2": "GKNNRPS", "CDR-L3": "SSRDSQGYQVR", "Kd (apparent)": "2.2 µM", "seen in": "3 of 3"}
{"CDR-L1": "EHDSLRYYYAN", "CDR-L2": "TKNNRPS", "CDR-L3": "SSRDSSGLQVF", "Kd (apparent)": "9.5 µM", "seen in": "1 of 3"}
{"CDR-L1": "EGDSLRYYYAN", "CDR-L2": "GKDNRYS", "CDR-L3": "SSRDSSGFCVF", "Kd (apparent)": "6.6 µM", "seen in": "3 of 3"}
{"CDR-L1": "EGDSLRYYSAN", "CDR-L2": "GKNNRPS", "CDR-L3": "SSRDSSGSQVW", "Kd (apparent)": "120 nM", "seen in": "3 of 3"}
{"CDR-L1": "EGYSLRYYYAN", "CDR-L2": "GGNNRPS", "CDR-L3": "SSRDSSGFRVF", "Kd (apparent)": "130 nM", "seen in": "3 of 3"}
{"CDR-L1": "EGDSLRYYYAP", "CDR-L2": "GKGNRPS", "CDR-L3": "SSRDSSGPQVF", "Kd (apparent)": "6.7 µM", "seen in": "2 of 3"}
{"CDR-L1": "EGDSIRYYYAN", "CDR-L2": "GKNNRWS", "CDR-L3": "SSRDSKGFQVF", "Kd (apparent)": "5.5 µM", "seen in": "2 of 3"}
{"CDR-L1": "EGDSLRYYNAN", "CDR-L2": "GKNNRPS", "CDR-L3": "SSRDSSGRQVE", "Kd (apparent)": "15 nM", "seen in": "3 of 3"}
{"CDR-L1": "EIDSLRYYMAN", "CDR-L2": "GKANRPS", "CDR-L3": "SSRDSSGFQVF", "Kd (apparent)": "950 nM", "seen in": "3 of 3"}
{"CDR-L1": "EGDSLRYYYAN", "CDR-L2": "GKSNRPS", "CDR-L3": "WSRDSSGFMVF", "Kd (apparent)": "not detected", "seen in": "0 of 3"}
{"CDR-L1": "EGDSLRYYYAN", "CDR-L2": "GDNNRPS", "CDR-L3": "SSRDVSGFQVI", "Kd (apparent)": "170 nM", "seen in": "3 of 3"}
{"CDR-L1": "EGDSLRYQYAN", "CDR-L2": "GKNNRPS", "CDR-L3": "SSRDSSMFQNF", "Kd (apparent)": "690 nM", "seen in": "2 of 3"}
{"CDR-L1": "EGDSLRYYYIN", "CDR-L2": "GKNNRPS", "CDR-L3": "SSRRSSGFQVF", "Kd (apparent)": "46 µM", "seen in": "2 of 3"}
{"CDR-L1": "EGDSLGYYYAN", "CDR-L2": "GKNWRPS", "CDR-L3": "SCRDSSGFQVF", "Kd (apparent)": "420 nM", "seen in": "3 of 3"}
{"CDR-L1": "EGDSLRHYYHN", "CDR-L2": "GKNNRPS", "CDR-L3": "SSRDSSGFQDF", "Kd (apparent)": "8.3 µM", "seen in": "3 of 3"}
{"CDR-L1": "EGDSLRYYYAK", "CDR-L2": "GKTNRPS", "CDR-L3": "SSRDSSGFQVF", "Kd (apparent)": "310 nM", "seen in": "1 of 3"}
{"CDR-L1": "EGDSLAYMYAN", "CDR-L2": "GKNNRPS", "CDR-L3": "RSRDSSGFQVF", "Kd (apparent)": "3.1 µM", "seen in": "2 of 3"}
{"CDR-L1": "EGDSLRYYYAN", "CDR-L2": "GKGNRPS", "CDR-L3": "SHRDSSGFQVF", "Kd (apparent)": "140 nM", "seen in": "3 of 3"}
{"CDR-L1": "EGDSCRYYYAN", "CDR-L2": "GKNNRPS", "CDR-L3": "SFRDSSGQQVF", "Kd (apparent)": "70 µM", "seen in": "3 of 3"}
{"CDR-L1": "EPDSLHYYYAN", "CDR-L2": "GKNNRPS", "CDR-L3": "SSRDSHGFQVF", "Kd (apparent)": "2.0 µM", "seen in": "1 of 3"}
{"CDR-L1": "EGDSLRYYYAN", "CDR-L2": "GKCNRPS", "CDR-L3": "MLRDSSGFQVF", "Kd (apparent)": "not detected", "seen in": "0 of 3"}
{"CDR-L1": "EGDSLRYYYAN", "CDR-L2": "GKPNRPS", "CDR-L3": "SSHDSSGFQVF", "Kd (apparent)": "13 µM", "seen in": "2 of 3"}
{"CDR-L1": "EPDSLRYEYAN", "CDR-L2": "GKNNRPS", "CDR-L3": "SSNDSSGFQVF", "Kd (apparent)": "17 µM", "seen in": "2 of 3"}
{"CDR-L1": "EGDSLRYYTAN", "CDR-L2": "GKNNYPS", "CDR-L3": "SSRDSSGFQVN", "Kd (apparent)": "47 µM", "seen in": "2 of 3"}
{"CDR-L1": "EGDSLRMYYKN", "CDR-L2": "GINNRPS", "CDR-L3": "SSRDSSGFQVF", "Kd (apparent)": "130 µM", "seen in": "2 of 3"}

From the list, the first 3 with no signal in any replicate:

CDR-L1,CDR-L2,CDR-L3,Kd (apparent),seen in
EGDSLRYYYAN,GKNNRPS,SSRDSDGFCVF,not detected,0 of 3
EGDSLRYYYAN,GKSNRPS,WSRDSSGFMVF,not detected,0 of 3
EGDSLRYYYAN,GKCNRPS,MLRDSSGFQVF,not detected,0 of 3

Values reported by Engelhart et al. 2022, doi:10.1038/s41597-022-01779-4 (FLAb copy).